Results: patent US20200129545A1, “METHODS OF TREATMENT WITH MIXED METAL COMPOUND” (published 2020)

Columns and labels:
[1] = tested on: adenine-induced CKD rat model; test: Adenine-induced CKD rat model: serum creatinine, phosphate, calcium, magnesium, PTH, FGF23, vitamin D metabolites; settings: for serum Mg: p<0.0001, 2-way ANOVA; for serum PO4 (lower levels): p<0.001; for FGF23 levels: fermagate vs control, both studies; for serum calcium: fermagate-treated vs control, both experiments
[2] = tested on: adenine-induced CKD rat model; test: Adenine-induced CKD rat model: tissue magnesium and magnesium:phosphate ratio; settings: for magnesium to phosphate accumulation, aorta: p<0.05
[3] = tested on: adenine-induced CKD rat model; test: Adenine-induced CKD rat model: vascular calcification in arterial tissues; settings: for degree of vascular calcification in arterial tissues: p<0.001; for animals that had VC (per animal basis): p<0.05
[4] = 0.75% study, vs untreated control, p<0.01
[5] = 1%+0.5% diet study, vs untreated control, p<0.001

## iron magnesium hydroxy carbonate
[1]; 0.5-1% P diet (high 1% P day, low 0.5% P overnight)
  serum Mg: 163 % control
[1]; 0.5-1% P diet
  serum PO4 (lower levels): 64 % control
[1]; 0.75% P diet, fermagate vs untreated control
  serum Mg: 203 % control
[1]; 0.75% P diet
  serum PO4 (lower levels): 67 % control
[1]; after start of fermagate treatment and higher phosphate diet
  hyperphosphatemia: hyperphosphatemia was present only in control
[1]
  FGF23 levels: not significantly altered
  serum calcium: not significantly different
[1]; listed as Fermagate
  FGF23 levels: did not significantly alter
  serum calcium: did not significantly alter
[1]; sacrifice serum, only 25-OH-D3 lactone differed (p=0.02), listed as Fermagate
  serum vitamin D profiles / metabolome: did not significantly alter
[2]; [4]
  magnesium to phosphate accumulation, coronary CMR arteries: significantly more
  magnesium to phosphate accumulation, distal vascular arteries: significantly more
[2]; 0.75% study, vs untreated control
  magnesium to phosphate accumulation, aorta: significantly more
[2]; [5]
  magnesium to phosphate accumulation, coronary CMR arteries: significantly more
  magnesium to phosphate accumulation, distal vascular: significantly more
[2]; 1%+0.5% diet study, vs untreated control, p<0.01
  magnesium to phosphate accumulation, carotid arteries: significantly more
[2]; 1%+0.5% diet study, vs untreated control
  magnesium to phosphate accumulation, aorta: significantly more
[2]; both studies
  Mg levels in the vasculature tissue: did not significantly alter
[2]; both studies, fermagate vs untreated CKD animals
  magnesium to phosphate ratios in non-vascular tissues (bone, muscle, fat, liver, heart, lung, spleen): Only vascular tissues demonstrated a difference
[2]; untreated CKD animals vs those receiving fermagate
  bone magnesium content: did not show significant alternation
[3]; 0.5-1% P diet, CON 65%
  degree of vascular calcification in arterial tissues: 13%
[3]; 0.5-1% P diet, CON 70%
  animals that had VC (per animal basis): 13%
[3]; 0.75% P diet, CON 79%
  degree of vascular calcification in arterial tissues: 35%
[3]; 0.75% P diet, CON 100%
  animals that had VC (per animal basis): 33%
